Data reported in article PMC3131678, “In vitro inhibition of porcine cytochrome P450 by 17β -estradiol and 17α-estradiol” (Interdisciplinary Toxicology, 2011).

Protein sequences, listed by entry. Tags and fused reporters are not part of them. Lines headed by an entry give the natural chain unless they say otherwise; changes in a name come on top. Residues count along the entry.
UniProt F1SJ26, 1-516: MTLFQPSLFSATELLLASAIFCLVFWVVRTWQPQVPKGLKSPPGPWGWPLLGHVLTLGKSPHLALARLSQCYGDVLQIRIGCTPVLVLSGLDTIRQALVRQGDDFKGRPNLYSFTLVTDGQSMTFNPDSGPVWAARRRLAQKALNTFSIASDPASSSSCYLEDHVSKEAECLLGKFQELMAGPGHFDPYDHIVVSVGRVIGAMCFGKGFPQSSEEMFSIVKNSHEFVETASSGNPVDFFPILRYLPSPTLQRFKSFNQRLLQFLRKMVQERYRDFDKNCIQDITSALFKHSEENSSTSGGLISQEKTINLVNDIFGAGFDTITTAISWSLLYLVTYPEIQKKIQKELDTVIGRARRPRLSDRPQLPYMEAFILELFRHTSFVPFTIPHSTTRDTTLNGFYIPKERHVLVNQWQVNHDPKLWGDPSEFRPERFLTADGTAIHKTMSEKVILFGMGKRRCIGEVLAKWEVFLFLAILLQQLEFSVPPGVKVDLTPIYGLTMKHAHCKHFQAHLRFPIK
UniProt P79383: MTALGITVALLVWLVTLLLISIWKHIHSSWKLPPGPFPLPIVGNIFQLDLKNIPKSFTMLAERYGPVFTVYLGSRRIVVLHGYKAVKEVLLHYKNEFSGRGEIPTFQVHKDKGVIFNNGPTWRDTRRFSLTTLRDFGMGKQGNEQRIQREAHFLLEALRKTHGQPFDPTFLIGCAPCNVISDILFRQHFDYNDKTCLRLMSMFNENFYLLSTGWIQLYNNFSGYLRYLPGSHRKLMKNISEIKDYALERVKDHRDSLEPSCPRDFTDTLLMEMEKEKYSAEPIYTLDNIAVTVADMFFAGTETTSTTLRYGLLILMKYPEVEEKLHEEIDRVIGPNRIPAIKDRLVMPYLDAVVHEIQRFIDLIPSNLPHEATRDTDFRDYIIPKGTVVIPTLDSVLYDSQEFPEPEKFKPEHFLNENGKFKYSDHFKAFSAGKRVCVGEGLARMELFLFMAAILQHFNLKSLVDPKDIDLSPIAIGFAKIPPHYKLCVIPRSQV

How the values were obtained:
CYP1A2 = CYP1A2 (Sus scrofa, UniProt F1SJ26); conditions: MROD; CI 95% confidence interval
Procedure: (§1) All procedures were done on ice.
(§2) All steroids were dissolved in methanol. […] Kinetic studies were performed under linear conditions.

CYP2E1 = CYP2E1 (Sus scrofa, UniProt P79383); test: Enzyme kinetic analysis of PNPH (4-nitrocatechol formation from p-nitrophenol) in porcine hepatic microsomes; conditions: CI 95% confidence interval
Procedure: as §1, §2

Structure (SMILES)	Vmax, pmol/min/mg (CI) (CYP1A2)	Vmax, pmol/min/mg (CI) (CYP2E1)
COc1ccc2nc3ccc(=O)cc-3oc2c1 [7-methoxy-resorufin, 7-methoxyresorufin]	7.1 (6.58–7.61) pmol/min/mg	
O=[N+]([O-])c1ccc(O)cc1 [p-nitrophenol]		134.0 (118.3–149.7) pmol/min/mg
